Results published in paper PMC5186412 (Future medicinal chemistry, 2015).

Conditions: PAMPA

Row | Substance | passive permeability (in words) | logPe (16 h) | ΔlogPe (relative to CSA (logPe = −5.01))
1 | daptomycin [reference compound] | poor passive permeability |  | 
2 | cyclosporin E [CSE] |  | −6.4 | −1.37
